{
  "sequences": {"note": "Protein sequences, listed by entry. Tags and fused reporters are not part of them.", "UniProt Q9N1N9, whole entry": "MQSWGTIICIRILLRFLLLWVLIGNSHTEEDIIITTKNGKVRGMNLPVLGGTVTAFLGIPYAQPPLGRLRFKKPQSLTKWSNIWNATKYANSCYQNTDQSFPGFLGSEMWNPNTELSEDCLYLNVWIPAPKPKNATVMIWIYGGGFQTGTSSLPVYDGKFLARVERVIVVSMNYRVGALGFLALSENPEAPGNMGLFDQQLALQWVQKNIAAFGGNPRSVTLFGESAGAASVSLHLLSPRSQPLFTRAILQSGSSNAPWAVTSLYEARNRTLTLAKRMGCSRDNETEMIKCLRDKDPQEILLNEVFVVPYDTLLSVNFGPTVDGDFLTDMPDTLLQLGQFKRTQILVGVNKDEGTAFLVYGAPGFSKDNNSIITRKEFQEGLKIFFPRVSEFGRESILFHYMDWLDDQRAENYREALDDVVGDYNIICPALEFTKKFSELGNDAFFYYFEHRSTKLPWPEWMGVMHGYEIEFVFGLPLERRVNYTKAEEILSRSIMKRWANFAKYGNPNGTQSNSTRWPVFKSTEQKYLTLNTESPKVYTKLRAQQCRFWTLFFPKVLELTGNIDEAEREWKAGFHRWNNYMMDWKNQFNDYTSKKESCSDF"},
  "source": "ChEMBL document CHEMBL1268919",
  "about": "“Berberine derivatives, with substituted amino groups linked at the 9-position, as inhibitors of acetylcholinesterase/butyrylcholinesterase” (Bioorg Med Chem Lett, 2010)",
  "key": {"Butyrylcholinesterase [1]": {"target": "T1, Butyrylcholinesterase (Equus caballus, UniProt Q9N1N9)"}, "Butyrylcholinesterase [2]": {"target": "T1, Butyrylcholinesterase", "remark": "listed apart in the source"}},
  "data": [
    {"smiles": "CCCN(CCC)CCCOc1c(OC)ccc2cc3[n+](cc12)CCc1cc2c(cc1-3)OCO2", "values": [
      {"measurement": "IC50", "setting": "Butyrylcholinesterase [1]", "result": 2880, "unit": "nM"},
      {"measurement": "IC50", "setting": "Butyrylcholinesterase [2]", "result": 1480, "unit": "nM"}
    ]},
    {"smiles": "COc1ccc2cc3[n+](cc2c1OCCN(C)C)CCc1cc2c(cc1-3)OCO2", "values": [
      {"measurement": "IC50", "setting": "Butyrylcholinesterase [1]", "result": 1650, "unit": "nM"},
      {"measurement": "IC50", "setting": "Butyrylcholinesterase [2]", "result": 936, "unit": "nM"}
    ]},
    {"smiles": "COc1ccc2cc3[n+](cc2c1OC)CCc1cc2c(cc1-3)OCO2", "note": "[BERBERINE CHLORIDE]", "values": [
      {"measurement": "IC50", "setting": "Butyrylcholinesterase [1]", "result": 18200, "unit": "nM"}
    ]}
  ]
}
